Measurements: PubChem BioAssay AID588352 (The Scripps Research Institute Molecular Screening Center, 2011)
This is a selection; strong and weak results do not stand in their true shares. Calls of active or inactive are those of the source.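 Rule for the calls: active = inhibition above a per-campaign cutoff, the mean of all compounds plus 3 SD (cut at about 60% in these data); inactive = the rest.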

The chains behind the UniProt entries cited, without tags or fusion partners.
UniProt Q9Y6Q9, whole entry, looked up: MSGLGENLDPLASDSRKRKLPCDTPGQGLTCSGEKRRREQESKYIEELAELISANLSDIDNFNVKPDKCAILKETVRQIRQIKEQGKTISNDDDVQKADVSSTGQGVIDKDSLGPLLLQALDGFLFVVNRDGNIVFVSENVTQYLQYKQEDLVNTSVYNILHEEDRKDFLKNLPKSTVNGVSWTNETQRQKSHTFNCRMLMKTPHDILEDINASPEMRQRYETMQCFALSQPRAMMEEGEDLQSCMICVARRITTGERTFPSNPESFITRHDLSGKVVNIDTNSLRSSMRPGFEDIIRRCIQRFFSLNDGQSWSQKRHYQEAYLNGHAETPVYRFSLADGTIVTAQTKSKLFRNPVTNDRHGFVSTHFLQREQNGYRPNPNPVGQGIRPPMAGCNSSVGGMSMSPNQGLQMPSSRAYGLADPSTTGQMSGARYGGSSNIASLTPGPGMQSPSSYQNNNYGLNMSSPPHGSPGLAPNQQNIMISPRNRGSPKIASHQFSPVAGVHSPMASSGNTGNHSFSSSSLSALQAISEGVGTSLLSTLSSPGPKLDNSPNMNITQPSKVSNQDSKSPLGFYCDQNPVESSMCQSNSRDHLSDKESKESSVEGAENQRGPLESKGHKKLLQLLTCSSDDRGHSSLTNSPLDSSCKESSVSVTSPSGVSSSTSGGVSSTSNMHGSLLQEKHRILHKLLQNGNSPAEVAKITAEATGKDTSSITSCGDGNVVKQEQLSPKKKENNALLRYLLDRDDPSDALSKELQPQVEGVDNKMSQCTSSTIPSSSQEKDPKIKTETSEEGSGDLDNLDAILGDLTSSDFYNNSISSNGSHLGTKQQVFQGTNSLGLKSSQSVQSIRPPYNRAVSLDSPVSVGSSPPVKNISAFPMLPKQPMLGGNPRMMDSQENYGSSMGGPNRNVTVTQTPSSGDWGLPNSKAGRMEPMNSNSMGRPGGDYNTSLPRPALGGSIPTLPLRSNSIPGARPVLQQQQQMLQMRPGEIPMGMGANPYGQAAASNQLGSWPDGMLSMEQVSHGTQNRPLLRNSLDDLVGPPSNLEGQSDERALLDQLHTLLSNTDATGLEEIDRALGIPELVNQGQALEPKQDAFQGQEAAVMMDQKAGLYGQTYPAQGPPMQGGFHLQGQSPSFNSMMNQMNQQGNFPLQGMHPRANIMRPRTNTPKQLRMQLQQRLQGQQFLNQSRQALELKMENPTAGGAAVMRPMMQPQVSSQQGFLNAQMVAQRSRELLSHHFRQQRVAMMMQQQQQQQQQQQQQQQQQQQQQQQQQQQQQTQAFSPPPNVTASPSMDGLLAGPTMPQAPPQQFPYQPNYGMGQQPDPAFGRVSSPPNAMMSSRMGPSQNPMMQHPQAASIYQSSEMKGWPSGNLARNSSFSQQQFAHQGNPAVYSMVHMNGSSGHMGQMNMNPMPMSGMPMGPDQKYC

The compounds below were run against Nuclear receptor coactivator 3 (Homo sapiens) (UniProt Q9Y6Q9) (assay: NCOA3 GAL4-fusion reporter inhibition – cell-based, luminescence, primary screen (AID 588352;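 note: 0% = DMSO-treated cells and 100% = gossypol-treated cells at 36 µM; higher means less SRC3-driven luciferase light from the GAL4 reporter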)). Conditions: HEK293 GAL4-SRC3 luciferase reporter, at 3.6 µM, stronger effect = higher value.
In the case of `Nc1ccc([As](=O)(O)c2ccc(N)cc2)cc1`, the inhibition is reported as inactive: 16.2%. `C[N+]1=C2C=CC=CC=C2SC12C([N+](=O)[O-])=CC([N+](=O)[O-])=C[C-]2[N+](=O)[O-]` (stereo unspecified) was tested, and the inhibition was inactive: -108%. For `CCN(/C(=N/P(=O)(N1CCOCC1)N1CCOCC1)N1CCOCC1)c1ccc(OC)cc1`, the inhibition was inactive: -0.63%. `CC(C)=N/N=C(\N)N[N+](=O)[O-]` was tested, and the inhibition was inactive: -12.1%. `CC(C)c1nc(Nc2ccccc2)n(P(=O)(N(C)C)N(C)C)n1` was tested, and the inhibition was inactive: 1.03%. In the case of `CN(C)C(=O)OCCc1n(C)cc[n+]1C`, the inhibition is reported as inactive: 13.1%. With `c1cc(-c2nn[nH]n2)ccc1-c1nn[nH]n1` the inhibition was inactive: -1.66%. `CC1CCN(C(=O)Oc2c(Cl)cc(Cl)c3cccnc23)CC1` was tested, and the inhibition was inactive: -4.94%. For `COc1ccc(C2=NCC(CBr)S2)cc1` (stereo unspecified), the inhibition was inactive: -16.6%. With `O=[N+]([O-])c1cccc2n[nH]nc12` the inhibition was inactive: 12.5%. In the case of `CC(=O)N1C2C3N(C(C)=O)C1C1N(C(C)=O)C(C(N1C(C)=O)N3C(C)=O)N2C(C)=O`, the inhibition is reported as inactive: 24.9%. `Cc1ccc(NP(=O)(Oc2ccccc2)Oc2ccccc2)nc1` was tested, and the inhibition was inactive: 5.26%. With `CCc1nc2c(n1)c1c(non1O)c1c2no[n+]1[O-]` the inhibition was inactive: 5.55%. With `O=[N+]([O-])c1cc([N+](=O)[O-])c(CCNc2ccccc2)c([N+](=O)[O-])c1` the inhibition was inactive: 8.67%. With `CC(C)(C)C(=O)NC(Sc1ccncn1)C(Cl)(Cl)Cl` (stereo unspecified) the inhibition was inactive: 20.7%. With `O=[N+]([O-])c1ncn(CCn2ncnc2[N+](=O)[O-])n1` the inhibition was inactive: -3.16%. With `O=[N+]([O-])c1cccc(NC2=NCC(CBr)S2)c1` (stereo unspecified) the inhibition was inactive: 14.4%. For `COC(=O)C1(C)COP(=O)(Nc2ccccc2)OC1` (stereo unspecified), the inhibition was inactive: -9.73%. In the case of `O=C(O)CNc1ccc([As](=O)(O)O)cc1`, the inhibition is reported as inactive: 2.01%. `O=P1(N(CCCl)CCCl)OCCCS1` (stereo unspecified) was tested, and the inhibition was inactive: -23.5%. With `O=C(Nc1cc([As](=O)(O)O)ccc1O)c1ccccc1` the inhibition was inactive: -2.53%. For `CCN(N=Nc1nonc1N)c1nonc1N`, the inhibition was inactive: 22.8%. With `Nc1cccc2ccc([As](=O)(O)O)cc12` the inhibition was inactive: -2.01%. For `O=C(O)c1ccccc1[As](=O)(O)O`, the inhibition was inactive: 16.3%. With `CC(=O)Nc1ccc([As](=O)(O)O)cc1` the inhibition was inactive: -15%. With `CCCC1OP(N)(=O)OCC1CC` (stereo unspecified) the inhibition was inactive: 0.92%. In the case of `CN(C)P(=O)(N(C)C)n1c(Nc2ccccc2)nnc1-c1ccccc1`, the inhibition is reported as inactive: -33.9%. `O=P(Nc1nc2ccc(Cl)cc2s1)(c1ccccc1)c1ccccc1` was tested, and the inhibition was inactive: -2.13%. For `CCOP(=O)(Nc1ccccc1)OCC`, the inhibition was inactive: -13.4%. With `Cc1cc(SC(NC(=O)c2ccc(F)cc2)C(Cl)(Cl)Cl)ncn1` (stereo unspecified) the inhibition was inactive: 11.9%. `Cc1ccc(NP(=O)(Oc2ccccc2F)Oc2ccccc2F)nc1` was tested, and the inhibition was inactive: 7.6%. For `CN(C(=O)Cc1ccc(Cl)c(Cl)c1)[C@H]1CCCC[C@@H]1N1CCCC1`, the inhibition was inactive: 8.84%. In the case of `CC(C)CC(=O)NC(Sc1ccc(Cl)cc1)C(Cl)(Cl)Cl` (stereo unspecified), the inhibition is reported as inactive: 18.7%. For `Nc1cc(N)c2nonc2c1[N+](=O)[O-]`, the inhibition was inactive: 15.1%. `Oc1ccccc1CNc1ccccn1` was tested, and the inhibition was inactive: 3.21%. `O=C(NC(Sc1ccncn1)C(Cl)(Cl)Cl)c1ccccc1` (stereo unspecified) was tested, and the inhibition was inactive: 4.11%. With `O=[N+]([O-])C1C(O)C(O)C([N+](=O)[O-])C(O)C1O` (stereo unspecified) the inhibition was inactive: -5.13%. In the case of `NC(=O)c1cc([N+](=O)[O-])cc([N+](=O)[O-])c1N`, the inhibition is reported as inactive: 12.1%. With `CN(C(=O)Cc1ccc(Cl)c(Cl)c1)[C@H]1CCCC[C@H]1N1CCCC1` the inhibition was inactive: 9.07%. In the case of `Cc1ccc(N/C(=N/P(=O)(N2CCOCC2)N2CCOCC2)N2CCOCC2)cc1`, the inhibition is reported as inactive: 11%. With `COc1ccccc1OP(=O)(Nc1ccc(C)cn1)Oc1ccccc1OC` the inhibition was inactive: -5.52%. For `Cc1ccc(OP(=O)(Nc2nccs2)Oc2ccc(C)cc2)cc1`, the inhibition was inactive: 10.4%. With `Clc1ccc(Cl)c(NC2=NCC(CBr)S2)c1` (stereo unspecified) the inhibition was inactive: -3.52%. For `CN1CCCC(OC(=O)C(c2ccccc2)c2ccccc2)C1` (stereo unspecified), the inhibition was inactive: 10.5%. In the case of `N#C/C(=C\c1ccc(N(CCBr)CCBr)cc1)C(N)=O`, the inhibition is reported as inactive: -17.4%. For `CC(=O)c1ccc(N2CC2c2ccncc2)cc1` (stereo unspecified), the inhibition was inactive: 2.54%. For `COC(=O)C1(C)COP(=O)(NCc2ccccc2)OC1` (stereo unspecified), the inhibition was inactive: -24.2%. `Cc1ccccc1CN(C)C(=O)COC(=O)C(O)(c1ccccc1)c1ccccc1` was tested, and the inhibition was inactive: 26.1%. In the case of `C[C@@H]1C=CCP(=O)(Oc2ccccc2)O1` (stereo partly specified), the inhibition is reported as inactive: -0.95%. `C[C@H]1OP(=O)(Oc2ccccc2)C[C@@H]2O[C@@H]21` (stereo partly specified) was tested, and the inhibition was inactive: -19.7%. In the case of `CC(=O)Nc1ccc([As](=O)(O)O)c(O)c1`, the inhibition is reported as inactive: -6.8%.
